Assay: Assay for oral absorbability: plasma drug concentration after oral administration to rats
Details: fasted male SD rats, oral 3 mg/kg
Experimental: Assay for Oral Absorbability
1) Preparation of the Samples for Measurement of the Drug Concentration after Oral Administration
As experimental animal, overnight fasted SD rats (Charles River, male, 7 weeks of age, 170-210 g) were used. Three mg of a test compound was dissolved by adding 0.2 mL of N,N-dimethylacetoamide, 9.794 mL of 0.5% aqueous methylcellulose solution and 0.006 mL of 2N NaOH, and then 0.3 mg/mL solution was prepared. The body weights of rats were measured, and the solution of the test compound was administered orally at the dose of 10 mL/kg (3 mg/kg). The oral administration was performed with gastric tube for rat and 2.5 mL syringe. The sampling times for collection of blood were 15, 30, 60, 120, 240 and 360 minutes after the oral administration. The blood was centrifuged, and the plasma was used as the sample for measurement of the drug concentration in blood.
2) Measurement of the Drug Concentration
To 0.025 mL of the plasma obtained in 1) described above, 0.1 mL of an adequate internal standard material was added according to the usual method, and then deproteinization was performed by adding 0.875 mL of acetonitrile. After centrifugation, 0.005 mL of the supernatant was injected into LC-MS/MS. The drug concentration in plasma was measured by LC-MS/MS method under the conditions as follows. […]

C360 (plasma drug concentration at 360 minutes after administration): 21
SMILES: O=C(O)c1scc2[nH]c(=O)n(-c3cc(S(=O)(=O)N4CCCc5ccccc54)ccc3Cl)c(=O)c12
